Assay [1] has as its target human serotonin transporter (h-SERT) (Homo sapiens (Human), UniProt P31645). The assay is described as follows: [3H] citalopram binding assay to evaluate human serotonin reuptake inhibitory action (h-SERT binding assay). The conditions noted are these: h-SERT binding inhibition constant Ki, Test Ex. 1.
The target of assay [2] is T1, human serotonin 2C receptor (h-5-HT2C) (Homo sapiens (Human), UniProt P28335). The assay is described as follows: [3H] mesulergine binding assay to evaluate affinity for human 5-HT2C receptor. The conditions noted are these: Test Ex. 2, h-5-HT2C/CHO membrane preparation, read-out: 5-HT2C receptor binding inhibition constant Ki.
Assay [3] has as its target T1, human serotonin 2C receptor (h-5-HT2C). The assay is described as follows: 5-HT2C receptor agonistic action assay (FLIPR Calcium 4, h-5-HT2C/CHO cells; agonistic / inverse agonistic action). It counts as cell-based. The conditions noted are these: Test Ex. 3; test material 10 μmol/L; 100% = 10 μmol/L 5-HT, −100% = 10 μmol/L SB206553; below 0% = inverse agonistic action. How it is done: 3-1. The Cells and Inoculation Thereof
In the experiment, human serotonin 2C receptor (h-5-HT2C) was expressed in CHO cells (h-5-HT2C/CHO). The cells were incubated with UltraCHO Lipuid (trademark) (manufactured by BioWhitakker) containing 1% FBS, 400 μg/mL Geneticin, 100 U/mL penicillin-100 μg/mL streptomycin (all manufactured by Sigma Aldrich) and 250 μg/mL Zeosin (manufactured by InvivoGen) in an incubator containing 5% CO2. On the day before using the cells, they were detached and collected using 250 μg/mL Trypsin solution (manufactured by Nacalai Tesque), then inoculated in a 96 well flat clear bottom black polystyrene TC-treated microplates (manufactured by Corning) at 40000 cells/well/60 μL in an incubator containing 5% CO2 for 16 hours to 24 hours.
3-2. 5-HT2C Receptor Agonistic Action Assay
The 5-HT2C receptor agonistic action was evaluated with FLIPR Calcium 4 Assay kit (manufactured by Molecular Devices). […] Then, the cells were set in FLIPR TETRA (trademark) (manufactured by Molecular Devices), to the cells was added the test material diluted with HHBP buffer, 2.5 mmol/L Probenecid (manufactured by Sigma) (concentration after dilution: 10 μmol/L) at an amount of 20 μL/well, and the fluorescence was measured. Then, in order to evaluate the antagonistic action of the test material, 20 μL/well of 5-HT solution (manufactured by Sigma, final concentration: 0.1 nmol/L) was further added to the cells, and the fluorescence was measured.
The 5-HT2C receptor agonistic action of each test material was calculated as a rate of fluorescence enhancement wherein 100% was defined as a value when the cells were given 10 μmol/L 5-HT. Furthermore, the 5-HT2C receptor inverse agonistic action was calculated as a rate of fluorescence decay wherein −100% was defined as a value when the cells were given 10 μmol/L SB206553 (manufactured by Sigma Aldrich). […]

Protein sequences, listed by entry. Tags and fused reporters are not part of them. Lines headed by an entry give the natural chain unless they say otherwise; changes in a name come on top.
UniProt P28335: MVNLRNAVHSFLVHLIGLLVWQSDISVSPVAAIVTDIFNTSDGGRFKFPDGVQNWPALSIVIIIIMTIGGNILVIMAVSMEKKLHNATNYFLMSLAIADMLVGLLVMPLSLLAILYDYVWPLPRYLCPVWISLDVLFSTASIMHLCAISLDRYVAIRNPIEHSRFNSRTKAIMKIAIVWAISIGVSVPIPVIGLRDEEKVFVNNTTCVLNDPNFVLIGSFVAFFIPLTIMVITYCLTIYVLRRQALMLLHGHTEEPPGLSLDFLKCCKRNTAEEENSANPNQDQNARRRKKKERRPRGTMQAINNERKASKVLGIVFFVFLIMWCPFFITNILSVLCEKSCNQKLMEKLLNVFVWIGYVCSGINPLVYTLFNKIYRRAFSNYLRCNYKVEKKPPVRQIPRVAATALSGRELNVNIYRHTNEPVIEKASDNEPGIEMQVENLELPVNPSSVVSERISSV

In the case of `CNC(C)c1cc(OCc2cc(F)ccc2F)n(CCC2CCCC2)n1` (single isomer, unassigned; (+)) [Example 477, (+)-1-{1-(2-cyclopentylethyl)-5-[(2,5-difluorobenzyl)-oxy]-1H-pyrazol-3-yl}-N-methylethanamine], the Ki in assay [1] was found to be 9.9 nM; in assay [2] it was 3.1 nM. The like results for `CNC(C)c1cc(OCc2cc(F)ccc2F)n(CCC2CCCC2)n1` (single isomer, unassigned; (-)) [Example 476, (−)-1-{1-(2-cyclopentylethyl)-5-[(2,5-difluorobenzyl)-oxy]-1H-pyrazol-3-yl}-N-methylethanamine] were, in that order, 14 nM and 2.3 nM. Turning to `CNCc1cc(OCc2cc(Cl)ccc2F)n(CC2CC2)n1` [Example 131, 1-{5-[(5-chloro-2-fluorobenzyl)oxy]-1-(cyclopropylmethyl)-1H-pyrazol-3-yl}-N-methylmethanamine], the “5-HT2C receptor agonistic action” value in assay [3] is listed as −70%. Still for that read-out and setting: then `CNCc1cc(OCc2cc(F)ccc2F)n(CC(C)(C)C)n1` [Example 258, 1-{5-[(2,5-difluorobenzyl)oxy]-1-(2,2-dimethylpropyl)-1H-pyrazol-3-yl}-N-methylmethanamine], with −118%; and `CNCc1cc(OCc2cc(F)ccc2F)n(CCC(C)C)n1` [Example 269, 1-{5-[(2,5-difluorobenzyl)oxy]-1-(3-methylbutyl)-1H-pyrazol-3-yl}-N-methylmethanamine], with −77%.

For the origin of these results see patent US11312688B2, “Pyrazole compound” (Sumitomo Dainippon Pharma Co., Ltd., priority 2011, dated 2022).
